Laboratory results: ChEMBL document CHEMBL1129509, “Hypoxia-selective antitumor agents. 12. Nitrobenzyl quaternary salts as bioreductive prodrugs of the alkylating agent mechlorethamine” (1996)

How the values were obtained:
UV4 = assay: Hypersensitivity factor is the ratio of IC50 for AA8/IC50 for UV4 cell line; conditions: Cricetulus griseus
EMT6 = assay: Hypersensitivity factor is the ratio of IC50 for AA8/IC50 for EMT6 cell line; conditions: Mus musculus

CN(CCCl)CCCl showed a Hypersensitivity factor (UV4) of 42 and a Hypersensitivity factor (EMT6) of 16.
